Patent US20160053026A1, “METHODS FOR TREATING INFECTION BY HPV” (STC.UNM, priority 2011, published 2016)

Columns and labels:
[1] = tested on: HPV16 viral genome; test: qPCR of HPV16 LCR (viral genome number) in HPV[+] HFK cells; type: cell-based; conditions: cetuximab 100 μg/mL or PD98059 25 μM, two to six days after treatment
Protocol: FIG. 9. Response of HPV16 viral genome number to EGFR or MAPK Inhibitors. HPV[+] HFK cells incubated in fibroblast conditioned media containing 100 μg/mL Cetuximab (M=Media only) or 25 μM PD98059 (Ø=Media+DMSO). Total DNA harvested at indicated time points was subjected to qPCR for HPV16 LCR quantification. […] Data are the result of 2 separate experiments. (* p<0.05, ** p<0.01).
HPV[+] HFK cells were incubated in fibroblast conditioned media containing 100 μg/mL cetuximab (M=Media only) or 25 μM PD98059 (Ø=Media+DMSO). Total DNA harvested at two days, three days, four days, five days, or six days after treatment was subjected to qPCR (SYBR Green I kit on the BioRad iCycler) for HPV16 LCR quantification. Statistically significant decreases in HPV16 genome levels are indicated. Total RNAs were extracted from cells using TRIzol (Invitrogen), and processed with the
(§1) TURBO DNA-free Kit (Ambion) to remove co-purifying viral and cellular DNA. Reverse transcription (RT) of total RNAs (0.2-0.5 μg) was performed using random hexamer primers and ABI reagents (Applied Biosystems). For quantitative PCR (qPCR), 2 μl of each cDNA or total DNA was analyzed in triplicate using the SYBR Green I kit on the iCycler (Bio-Rad Laboratories, Inc., Hercules, Calif.).

[2] = tested on: HPV[−] human keratinocytes; test: MTT cell viability assay, HPV[−] cells; type: cell-based; conditions: cetuximab 50, 100, 200 μg/mL; PD98059 12.5, 25, 50 μM; MTT after 72 hours (seven days)
Protocol: (§2) FIG. 7. Effect of Erb and MAPK inhibitors on cells survival in HPV[−] and HPV[+] human keratinocytes. Cells were grown for seven days in fibroblast conditioned media containing 0 μg/mL [M], 50 μg/mL, 100 μg/mL, or 200 μg/mL Cetuximab or 12.5 μM, 25 μM, or 50 μM PD98059as indicated by the wedges. The boxes indicate the same concentrations used in the FIG. 3 and FIG. 5. MTT assays were performed to assess cell viability. Error bars represent SEM (N=3).
(§3) Cetuximab's effect was recently assessed on MAPK activation and proliferation in two cervical cancer cell lines long in culture, but with no investigation of HPV involvement (Meira et al., 2009, Br J Cancer 101:782-791). Our approach was similar, investigating differences between HPV16 positive (HPV[+]) and HPV negative (HPV[−]) cell lines, however, and investigating the effects of additional EGFR signaling inhibitors. […] Western blot was performed (FIG. 5) and cell viability determined with MTT assay and clonogenic assays performed as described (FIG. 7) (Meira et al., 2009, Euro J Cancer 45:1265-1273).
(§4) The proliferative capacity of MAPK inhibitor-treated cells compared to untreated cells was measured by MTT assay after 72 hours to determine the surviving fractions (FIG. 7). […]

[3] = tested on: EGFR; test: Immunoblot for p-EGFR after EGF stimulation in HPV[+] and HPV[−] keratinocytes; type: cell-based, human; conditions: cetuximab 100 μg/mL or PD98059 25 μM; 10 ng/mL EGF in SFM, 5 or 15 minutes; SG3 (HPV16[+]) and NIKS (HPV[−]) cells
Protocol: (§5) FIG. 5. Response of Erb RTK pathway signaling in HPV[−] or HPV[+] human keratinocytes following inhibition of EGFR with cetuximab and MEK with PD98059. Cells were serum starved for 8 hours prior to mock (M) treatment, treatment with diluent in SFM and 10 ng/ml EGF (Ø), cetuximab (C, 100 μg/mL) or MEK inhibitor PD98059 (P, 25 μM) before and during exposure to 10 ng/mL EGF in SFM for indicated times. Mock=No EGF. Cell lysates were harvested and subjected to SDS-PAGE and immunoblot for p-EGFR, total EGFR, p-ERK1/2 and GAPDH, a loading control.
(§6) Cetuximab's effect was recently assessed on MAPK activation and proliferation in two cervical cancer cell lines long in culture, but with no investigation of HPV involvement (Meira et al., 2009, Br J Cancer 101:782-791). Our approach was similar, investigating differences between HPV16 positive (HPV[+]) and HPV negative (HPV[−]) cell lines, however, and investigating the effects of additional EGFR signaling inhibitors. Cells were grown in monolayer cultures and exposed to clinically relevant doses of EGF (0.1 ng/ml or 10 ng/ml, 5-15 minutes), cetuximab (100 μg/ml, 4 hours), PD98059 (25 μM, 1 hour). Western blot was performed (FIG. 5) and cell viability determined with MTT assay and clonogenic assays performed as described (FIG. 7) (Meira et al., 2009, Euro J Cancer 45:1265-1273). […]

[4] = tested on: HPV[+] human keratinocytes; test: MTT cell viability assay, HPV[+] cells; type: cell-based; conditions: cetuximab 50, 100, 200 μg/mL; PD98059 12.5, 25, 50 μM; MTT after 72 hours (seven days)
Protocol: as §2, §3, §4

[5] = tested on: p-ERK1/2; test: Immunoblot for p-ERK1/2 (MAPK signaling) after EGF stimulation in HPV[+] and HPV[−] keratinocytes; type: cell-based, human; conditions: cetuximab 100 μg/mL or PD98059 25 μM; 10 ng/mL EGF in SFM, 5 or 15 minutes; SG3 (HPV16[+]) and NIKS (HPV[−]) cells
Protocol: as §5, §6

[6] = tested on: HPV16 E1^E4 early mRNA; test: RT-qPCR of HPV16 E1^E4 early mRNA in HPV[+] HFK cells; type: cell-based; conditions: cetuximab 100 μg/mL or PD98059 25 μM, 24-96 hours
Protocol: FIG. 8. HPV16 E1̂E4 early mRNA levels in response to treatment with EGFR or MAPK inhibitors. HPV[+] HFK cells incubated in fibroblast conditioned media containing 100 μg/mL Cetuximab or 25 μM PD98059. Total RNA harvested at indicated time points was subjected to RT and then to qPCR for β-actin and HPV16 E1̂E4 quantification. […] Data are the result of two separate experiments.
Reduced HPV expression can restore functional levels of p53 and pRb. We quantified HPV early mRNAs E1̂E4 /E5 using RT-qPCR following the exposure of the cell lines to the active doses of EGF, cetuximab, and PD98059 used in FIGS. 6 and FIG. 7.
HPV[+] HFK cells were incubated in fibroblast conditioned media containing 100 μg/mL cetuximab or 25 μM PD98059. Total RNA harvested at 24 hours, 48 hours, 72 hours, or 96 hours was subjected to RT and then to qPCR for β-actin and HPV16 E1̂E4 quantification. Statistically significant decreases in HPV16 E1̂E4 transcript levels in response to treatments are indicated.
as §1

cetuximab
HPV16 genome levels (LCR qPCR) compared to mock treated [1]: statistically significant decrease in HPV16 genome levels
viability of HPV[−] cells (MTT) [2]: dose-dependent decrease in viability
EGFR activation (p-EGFR) [3]: decreased EGFR activation
viability of HPV[+] cells (MTT) [4]: dose-dependent decrease in viability
downstream / MAPK signaling (p-ERK1/2) [5]: decreased downstream signaling
HPV16 E1^E4 transcript levels [6]: decrease is statistically significant after 48 hours of treatment
